Experimental data reported in patent US12247064B2, “Modified ligand-gated ion channels and methods of use” (Howard Hughes Medical Institute, priority 2017, dated 2025).
pEC50: −log10 of the molar value. Where two headings read alike, the source gives them in different places.

Protein sequences, listed by entry. Tags and fused reporters are not part of them. Chains listed by the source or under a name are the forms on record and can include a tag or linker.
UniProt P36544, with tags, fused parts or gaps Y115F/G175M limits assumed: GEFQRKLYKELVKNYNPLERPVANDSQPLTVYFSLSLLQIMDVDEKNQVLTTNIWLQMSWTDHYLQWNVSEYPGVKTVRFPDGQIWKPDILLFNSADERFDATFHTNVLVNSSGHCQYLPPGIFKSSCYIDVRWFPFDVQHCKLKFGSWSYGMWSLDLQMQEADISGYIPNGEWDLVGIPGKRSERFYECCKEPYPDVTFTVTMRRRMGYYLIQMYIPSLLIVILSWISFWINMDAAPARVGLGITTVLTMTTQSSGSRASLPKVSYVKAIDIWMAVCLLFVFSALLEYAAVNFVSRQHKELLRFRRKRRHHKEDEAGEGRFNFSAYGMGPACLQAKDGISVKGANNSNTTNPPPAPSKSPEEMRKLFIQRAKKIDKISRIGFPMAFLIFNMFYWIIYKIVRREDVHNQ
UniProt P36544, with tags, fused parts or gaps Y115F/G175F limits assumed: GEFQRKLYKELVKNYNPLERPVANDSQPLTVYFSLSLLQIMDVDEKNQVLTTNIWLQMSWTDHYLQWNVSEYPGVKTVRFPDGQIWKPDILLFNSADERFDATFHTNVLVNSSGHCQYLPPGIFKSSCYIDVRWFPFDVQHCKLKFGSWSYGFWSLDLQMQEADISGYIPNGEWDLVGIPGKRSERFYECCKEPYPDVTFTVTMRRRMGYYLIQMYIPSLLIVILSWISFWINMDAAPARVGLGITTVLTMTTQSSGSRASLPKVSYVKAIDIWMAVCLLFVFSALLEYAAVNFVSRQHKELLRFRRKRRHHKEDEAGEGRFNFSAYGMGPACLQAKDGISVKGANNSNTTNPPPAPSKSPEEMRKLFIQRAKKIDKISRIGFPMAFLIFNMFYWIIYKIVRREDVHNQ
UniProt P36544, with tags, fused parts or gaps T225I/M226I limits assumed: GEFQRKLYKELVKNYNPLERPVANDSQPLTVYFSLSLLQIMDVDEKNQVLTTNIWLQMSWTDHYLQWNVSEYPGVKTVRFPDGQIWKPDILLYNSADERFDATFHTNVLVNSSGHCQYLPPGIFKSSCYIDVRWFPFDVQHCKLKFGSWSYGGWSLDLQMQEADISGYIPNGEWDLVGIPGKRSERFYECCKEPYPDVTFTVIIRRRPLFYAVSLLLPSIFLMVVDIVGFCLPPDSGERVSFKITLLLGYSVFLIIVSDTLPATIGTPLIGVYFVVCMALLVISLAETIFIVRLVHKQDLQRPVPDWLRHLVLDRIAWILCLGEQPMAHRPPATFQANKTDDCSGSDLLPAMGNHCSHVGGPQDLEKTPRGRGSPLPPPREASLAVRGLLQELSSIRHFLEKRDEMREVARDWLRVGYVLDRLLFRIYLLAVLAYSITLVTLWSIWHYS
UniProt P36544, with tags, fused parts or gaps Y115F/G175R limits assumed: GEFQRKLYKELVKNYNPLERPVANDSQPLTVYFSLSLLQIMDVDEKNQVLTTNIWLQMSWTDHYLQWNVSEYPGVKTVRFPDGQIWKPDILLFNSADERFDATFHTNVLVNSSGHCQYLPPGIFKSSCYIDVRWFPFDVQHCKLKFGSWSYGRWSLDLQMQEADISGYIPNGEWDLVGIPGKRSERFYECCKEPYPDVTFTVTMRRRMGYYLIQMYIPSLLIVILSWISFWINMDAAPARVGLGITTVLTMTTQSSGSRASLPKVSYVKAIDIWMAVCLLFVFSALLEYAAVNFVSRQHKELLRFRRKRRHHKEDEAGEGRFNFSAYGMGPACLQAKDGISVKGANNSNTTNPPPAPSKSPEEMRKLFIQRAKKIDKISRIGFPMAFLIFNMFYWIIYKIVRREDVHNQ
UniProt P36544, with tags, fused parts or gaps W77F/G175K/Y210F: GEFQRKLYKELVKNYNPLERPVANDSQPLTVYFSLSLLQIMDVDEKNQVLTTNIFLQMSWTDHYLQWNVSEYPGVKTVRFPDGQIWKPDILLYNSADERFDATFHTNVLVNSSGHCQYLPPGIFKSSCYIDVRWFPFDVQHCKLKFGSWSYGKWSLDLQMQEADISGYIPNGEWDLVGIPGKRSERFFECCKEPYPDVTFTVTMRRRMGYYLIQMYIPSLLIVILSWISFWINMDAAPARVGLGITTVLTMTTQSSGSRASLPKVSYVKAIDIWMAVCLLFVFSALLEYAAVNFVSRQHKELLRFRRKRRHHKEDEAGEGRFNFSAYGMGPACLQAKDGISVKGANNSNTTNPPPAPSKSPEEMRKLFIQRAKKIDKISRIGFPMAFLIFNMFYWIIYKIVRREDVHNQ
UniProt P36544, with tags, fused parts or gaps Y115F/G175S limits assumed: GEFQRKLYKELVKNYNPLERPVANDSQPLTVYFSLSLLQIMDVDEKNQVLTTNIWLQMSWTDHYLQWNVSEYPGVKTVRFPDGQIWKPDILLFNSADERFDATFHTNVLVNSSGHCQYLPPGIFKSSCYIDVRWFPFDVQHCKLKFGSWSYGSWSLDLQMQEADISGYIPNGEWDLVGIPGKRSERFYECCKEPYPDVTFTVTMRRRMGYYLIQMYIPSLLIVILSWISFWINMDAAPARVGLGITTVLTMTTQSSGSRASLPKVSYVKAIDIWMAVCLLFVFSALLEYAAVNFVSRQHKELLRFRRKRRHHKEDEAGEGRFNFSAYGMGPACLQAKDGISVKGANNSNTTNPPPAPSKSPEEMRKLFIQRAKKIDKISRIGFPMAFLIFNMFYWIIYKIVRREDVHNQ
UniProt P36544, with tags, fused parts or gaps Q79G/Y115F/G175K limits assumed: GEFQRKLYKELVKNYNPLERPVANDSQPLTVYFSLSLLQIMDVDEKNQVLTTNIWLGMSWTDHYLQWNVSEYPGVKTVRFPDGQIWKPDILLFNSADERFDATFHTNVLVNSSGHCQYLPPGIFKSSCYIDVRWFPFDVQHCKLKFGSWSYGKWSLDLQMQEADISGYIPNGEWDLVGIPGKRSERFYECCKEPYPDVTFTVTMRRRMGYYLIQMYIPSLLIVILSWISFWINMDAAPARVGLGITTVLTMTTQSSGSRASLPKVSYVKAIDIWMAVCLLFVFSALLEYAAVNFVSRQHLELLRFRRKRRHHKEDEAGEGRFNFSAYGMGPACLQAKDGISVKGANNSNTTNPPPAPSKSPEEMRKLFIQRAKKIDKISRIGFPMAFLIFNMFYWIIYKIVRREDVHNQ
UniProt P36544, with tags, fused parts or gaps Q79G/Y115F/G175K/Y210F limits assumed: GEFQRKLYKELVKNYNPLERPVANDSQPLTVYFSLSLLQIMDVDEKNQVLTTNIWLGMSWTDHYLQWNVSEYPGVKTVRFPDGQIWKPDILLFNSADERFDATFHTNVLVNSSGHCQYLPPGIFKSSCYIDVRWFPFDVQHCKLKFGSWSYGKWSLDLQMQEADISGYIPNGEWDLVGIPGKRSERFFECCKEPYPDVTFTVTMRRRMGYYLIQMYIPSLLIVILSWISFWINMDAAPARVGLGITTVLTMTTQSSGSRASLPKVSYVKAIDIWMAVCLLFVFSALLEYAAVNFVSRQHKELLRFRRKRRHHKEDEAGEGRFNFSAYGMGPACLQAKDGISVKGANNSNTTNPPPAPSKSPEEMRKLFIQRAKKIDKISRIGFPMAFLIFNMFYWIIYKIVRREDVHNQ
UniProt P36544, with tags, fused parts or gaps R27D/E41R/Q79G/Y115F/G175K limits assumed: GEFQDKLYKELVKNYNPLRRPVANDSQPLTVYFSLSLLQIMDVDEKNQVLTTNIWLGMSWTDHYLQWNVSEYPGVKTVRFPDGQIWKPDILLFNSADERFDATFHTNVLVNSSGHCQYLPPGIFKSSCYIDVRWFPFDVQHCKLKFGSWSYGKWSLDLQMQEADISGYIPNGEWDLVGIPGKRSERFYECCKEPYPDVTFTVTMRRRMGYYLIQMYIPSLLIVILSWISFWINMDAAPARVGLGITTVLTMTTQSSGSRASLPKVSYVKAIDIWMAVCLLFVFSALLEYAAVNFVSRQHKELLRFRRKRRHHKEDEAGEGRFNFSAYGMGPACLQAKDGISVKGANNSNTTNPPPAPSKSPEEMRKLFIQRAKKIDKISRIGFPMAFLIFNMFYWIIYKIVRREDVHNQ
UniProt P36544, with tags, fused parts or gaps L131Q limits assumed: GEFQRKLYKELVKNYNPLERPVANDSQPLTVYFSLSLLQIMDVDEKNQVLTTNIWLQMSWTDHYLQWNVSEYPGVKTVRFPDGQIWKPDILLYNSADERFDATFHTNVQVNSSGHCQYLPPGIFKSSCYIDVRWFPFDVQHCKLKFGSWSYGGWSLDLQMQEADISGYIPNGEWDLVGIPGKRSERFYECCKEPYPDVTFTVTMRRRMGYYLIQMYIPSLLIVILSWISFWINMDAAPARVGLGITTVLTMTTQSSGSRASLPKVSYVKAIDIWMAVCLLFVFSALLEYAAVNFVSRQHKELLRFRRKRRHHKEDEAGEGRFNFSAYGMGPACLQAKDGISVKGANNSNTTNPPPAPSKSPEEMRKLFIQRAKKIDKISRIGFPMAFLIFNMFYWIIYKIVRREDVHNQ
UniProt P36544, with tags, fused parts or gaps W77F/Q79G/G175K: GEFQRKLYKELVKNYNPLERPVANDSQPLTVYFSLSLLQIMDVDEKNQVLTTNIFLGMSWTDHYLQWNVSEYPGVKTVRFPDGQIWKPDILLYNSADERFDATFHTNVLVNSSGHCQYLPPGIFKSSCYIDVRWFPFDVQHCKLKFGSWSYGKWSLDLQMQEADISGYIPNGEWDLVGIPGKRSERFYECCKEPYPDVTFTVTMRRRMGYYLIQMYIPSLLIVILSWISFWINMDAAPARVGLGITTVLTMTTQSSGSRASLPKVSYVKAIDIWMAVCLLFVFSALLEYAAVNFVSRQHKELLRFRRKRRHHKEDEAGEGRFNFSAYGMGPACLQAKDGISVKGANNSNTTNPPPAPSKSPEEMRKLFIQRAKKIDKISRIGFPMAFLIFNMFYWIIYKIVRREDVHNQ
UniProt P36544, with tags, fused parts or gaps Y115F/L141F/G175K limits assumed: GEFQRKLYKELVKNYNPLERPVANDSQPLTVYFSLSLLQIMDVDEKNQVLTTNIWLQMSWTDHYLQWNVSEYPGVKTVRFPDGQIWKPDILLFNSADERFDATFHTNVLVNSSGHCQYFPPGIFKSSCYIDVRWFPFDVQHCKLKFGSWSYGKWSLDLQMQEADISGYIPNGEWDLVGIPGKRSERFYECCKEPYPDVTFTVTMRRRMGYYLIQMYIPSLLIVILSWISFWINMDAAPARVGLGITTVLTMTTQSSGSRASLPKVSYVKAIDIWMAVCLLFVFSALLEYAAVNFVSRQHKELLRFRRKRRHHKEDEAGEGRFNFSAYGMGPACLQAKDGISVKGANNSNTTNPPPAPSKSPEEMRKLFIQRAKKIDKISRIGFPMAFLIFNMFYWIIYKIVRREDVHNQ
UniProt P36544, with tags, fused parts or gaps G175K/Y210F: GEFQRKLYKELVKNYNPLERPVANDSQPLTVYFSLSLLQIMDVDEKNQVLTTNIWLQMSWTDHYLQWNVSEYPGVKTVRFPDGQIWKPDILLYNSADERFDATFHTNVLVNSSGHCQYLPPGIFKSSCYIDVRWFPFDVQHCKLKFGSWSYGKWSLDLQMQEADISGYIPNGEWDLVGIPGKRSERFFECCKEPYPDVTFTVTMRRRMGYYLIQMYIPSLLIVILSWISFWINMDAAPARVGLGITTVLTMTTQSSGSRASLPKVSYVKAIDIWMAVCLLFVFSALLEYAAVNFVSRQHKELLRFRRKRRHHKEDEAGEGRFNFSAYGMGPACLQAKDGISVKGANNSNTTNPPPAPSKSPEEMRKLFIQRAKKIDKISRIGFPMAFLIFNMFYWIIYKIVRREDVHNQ
UniProt P36544, with tags, fused parts or gaps L131A limits assumed: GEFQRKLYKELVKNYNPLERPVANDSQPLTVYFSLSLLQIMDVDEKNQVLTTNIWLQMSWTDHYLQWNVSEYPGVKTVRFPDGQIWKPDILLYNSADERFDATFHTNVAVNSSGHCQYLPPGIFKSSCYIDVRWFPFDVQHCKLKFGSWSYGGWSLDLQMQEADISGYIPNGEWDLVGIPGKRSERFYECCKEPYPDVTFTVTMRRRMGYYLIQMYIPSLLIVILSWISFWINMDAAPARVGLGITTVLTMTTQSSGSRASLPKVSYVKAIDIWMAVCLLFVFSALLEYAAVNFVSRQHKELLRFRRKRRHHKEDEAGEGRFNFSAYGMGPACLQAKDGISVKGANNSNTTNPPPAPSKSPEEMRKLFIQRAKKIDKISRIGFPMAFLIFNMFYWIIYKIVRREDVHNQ
UniProt P36544, with tags, fused parts or gaps Q79S: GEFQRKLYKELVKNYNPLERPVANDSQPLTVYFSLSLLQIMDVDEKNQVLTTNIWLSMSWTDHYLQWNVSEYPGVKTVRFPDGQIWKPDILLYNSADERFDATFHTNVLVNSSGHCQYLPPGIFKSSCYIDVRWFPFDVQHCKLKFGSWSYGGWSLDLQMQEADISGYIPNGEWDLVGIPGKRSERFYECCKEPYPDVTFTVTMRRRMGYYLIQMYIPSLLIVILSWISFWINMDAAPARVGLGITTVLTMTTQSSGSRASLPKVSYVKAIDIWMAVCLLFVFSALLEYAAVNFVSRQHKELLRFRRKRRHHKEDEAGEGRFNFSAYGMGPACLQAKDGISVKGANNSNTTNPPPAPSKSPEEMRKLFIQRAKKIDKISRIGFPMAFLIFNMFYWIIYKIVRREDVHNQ
UniProt P36544, with tags, fused parts or gaps Y115F/L131M: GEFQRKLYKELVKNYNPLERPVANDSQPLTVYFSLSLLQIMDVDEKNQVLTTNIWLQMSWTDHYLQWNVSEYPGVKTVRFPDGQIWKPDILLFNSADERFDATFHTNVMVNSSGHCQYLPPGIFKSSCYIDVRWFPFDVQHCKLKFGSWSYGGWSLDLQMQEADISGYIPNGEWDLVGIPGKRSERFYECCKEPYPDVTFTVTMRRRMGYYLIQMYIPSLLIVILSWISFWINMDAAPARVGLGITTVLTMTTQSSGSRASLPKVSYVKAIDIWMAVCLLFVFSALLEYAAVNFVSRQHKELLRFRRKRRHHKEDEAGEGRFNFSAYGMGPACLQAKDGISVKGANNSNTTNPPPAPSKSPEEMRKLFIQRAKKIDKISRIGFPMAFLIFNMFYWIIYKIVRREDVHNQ

Assays:
α7GlyR Y115F G175M = target: T1, α7GlyR Y115F G175M (Homo sapiens, UniProt P36544, G175M/Y115F); assay: Agonist potency at chimeric channel; type: cell-based; settings: Table 8
T1 construct: expressed in transfected cells

α7GlyR Y115F G175F = target: T2, α7GlyR Y115F G175F (Homo sapiens, UniProt P36544, G175F/Y115F); assay: Agonist potency at chimeric channel; type: cell-based; settings: Table 8
T2 construct: expressed in transfected cells

α7-5HT3 [1] = target: T3, α7-5HT3 (Homo sapiens, UniProt P36544, M226I/T225I)
α7GlyR Y115F G175R = target: T4, α7GlyR Y115F G175R (Homo sapiens, UniProt P36544, G175R/Y115F); assay: Agonist potency at chimeric channel; type: cell-based; settings: Table 8
T4 construct: expressed in transfected cells

α7GlyR W77F G175K Y210F = target: T5, α7GlyR W77F G175K Y210F (Homo sapiens, UniProt P36544, G175K/W77F/Y210F); assay: Agonist potency at chimeric channel; type: cell-based; settings: Table 5
T5 construct: expressed in transfected cells

α7GlyR Y115F G175S = target: T6, α7GlyR Y115F G175S (Homo sapiens, UniProt P36544, G175S/Y115F); assay: Agonist potency at chimeric channel; type: cell-based; settings: Table 8
T6 construct: expressed in transfected cells

[2] = target: T7, α7GlyR Q79G Y115F G175K K322L (Homo sapiens, UniProt P36544, G175K/Q79G/Y115F); assay: Agonist potency at chimeric channel; type: cell-based; settings: Table 5
T7 construct: expressed in transfected cells

[3] = target: T8, α7GlyR Q79G Y115F G175K Y210F (Homo sapiens, UniProt P36544, G175K/Q79G/Y115F/Y210F); assay: Agonist potency at chimeric channel; type: cell-based; settings: Table 5
T8 construct: expressed in transfected cells

[4] = target: T9, α7GlyR Q79G G175K Y115F R27D E41R (Homo sapiens, UniProt P36544, E41R/G175K/Q79G/R27D/Y115F); assay: cell-based
T9 construct: expressed in transfected cells

α7^L131Q-GlyR = target: T10, α7^L131Q-GlyR (Homo sapiens, UniProt P36544, L131Q); type: cell-based; settings: α7GlyR L131Q; read-out: Agonist potency
T10 construct: expressed in transfected cells

α7GlyR W77F Q79G G175K = target: T11, α7GlyR W77F Q79G G175K (Homo sapiens, UniProt P36544, G175K/Q79G/W77F); assay: Agonist potency at chimeric channel; type: cell-based; settings: Table 5
T11 construct: expressed in transfected cells

α7GlyR Y115F G175K L141F = target: T12, α7GlyR Y115F G175K L141F (Homo sapiens, UniProt P36544, G175K/L141F/Y115F); assay: Agonist potency at chimeric channel; type: cell-based; settings: Table 5
T12 construct: expressed in transfected cells

α7GlyR G175K Y210F = target: T13, α7GlyR G175K Y210F (Homo sapiens, UniProt P36544, G175K/Y210F); assay: Agonist potency at chimeric channel; type: cell-based; settings: Table 5
T13 construct: expressed in transfected cells

α7^L131A-GlyR = target: T14, α7^L131A-GlyR (Homo sapiens, UniProt P36544, L131A); type: cell-based; settings: α7GlyR L131A; read-out: Agonist potency
T14 construct: expressed in transfected cells

α7^Q79S-GlyR = target: T15, α7^Q79S-GlyR (Homo sapiens, UniProt P36544, Q79S); type: cell-based; settings: HEK cells; Table 2; read-out: Mean EC50 and SEM in parentheses
T15 construct: expressed in transfected cells; host or cells: HEK cells

α7-5HT3 [5] = target: T3, α7-5HT3; settings: read-out: Mean EC50; HEK cells; Table 1
α7GlyR Y115F L131M = target: T16, α7GlyR Y115F L131M (Homo sapiens, UniProt P36544, L131M/Y115F); type: cell-based; settings: read-out: Agonist potency
T16 construct: expressed in transfected cells

α7^Q79G-5HT3 = target: T17, α7^Q79G-5HT3 (Homo sapiens, UniProt P36544, M226I/Q79G/T225I); type: cell-based, human α7 nAChR LBD, murine 5HT3 IPD; settings: HEK cells; Table 1
T17 construct: expressed in transfected cells; host or cells: HEK cells

α7GlyR Q79G G175K Y115F = target: T18, α7GlyR Q79G G175K Y115F (Homo sapiens, UniProt P36544, G175K/Q79G/Y115F); assay: Agonist potency at chimeric channel; type: cell-based; settings: Table 5
T18 construct: expressed in transfected cells

α7^L131F-GlyR = target: T19, α7^L131F-GlyR (Homo sapiens, UniProt P36544, L131F); type: cell-based; settings: α7GlyR L131F; read-out: Agonist potency
T19 construct: expressed in transfected cells

α7GlyR G175K = target: T20, α7GlyR G175K (Homo sapiens, UniProt P36544, G175K); assay: Agonist potency at chimeric channel; type: cell-based; settings: Table 5
T20 construct: expressed in transfected cells

α7GlyR W77F G175K = target: T21, α7GlyR W77F G175K (Homo sapiens, UniProt P36544, G175K/W77F); assay: Agonist potency at chimeric channel; type: cell-based; settings: Table 5
T21 construct: expressed in transfected cells

α7GlyR Y115F G175V = target: T22, α7GlyR Y115F G175V (Homo sapiens, UniProt P36544, G175V/Y115F); assay: Agonist potency at chimeric channel; type: cell-based; settings: Table 8
T22 construct: expressed in transfected cells

α7-GlyR^A298G = target: T23, α7-GlyR^A298G (Homo sapiens, UniProt P36544, A298G); type: cell-based; settings: HEK cells; Table 2; read-out: Mean EC50 and SEM in parentheses
T23 construct: expressed in transfected cells; host or cells: HEK cells

α7GlyR Y115F G175A = target: T24, α7GlyR Y115F G175A (Homo sapiens, UniProt P36544, G175A/Y115F); assay: Agonist potency at chimeric channel; type: cell-based; settings: Table 8
T24 construct: expressed in transfected cells

α7^L131N-GlyR = target: T25, α7^L131N-GlyR (Homo sapiens, UniProt P36544, L131N); type: cell-based; settings: α7GlyR L131N; read-out: Agonist potency
T25 construct: expressed in transfected cells

[6] = target: T26, α7GlyR W77F Q79G Y115F G175K (Homo sapiens, UniProt P36544, G175K/Q79G/W77F/Y115F); assay: Agonist potency at chimeric channel; type: cell-based; settings: Table 5
T26 construct: expressed in transfected cells

α7^Q79A-GlyR = target: T27, α7^Q79A-GlyR (Homo sapiens, UniProt P36544, Q79A); type: cell-based; settings: HEK cells; Table 2; read-out: Mean EC50 and SEM in parentheses
T27 construct: expressed in transfected cells; host or cells: HEK cells

α7GlyR Y115F G175K = target: T28, α7GlyR Y115F G175K (Homo sapiens, UniProt P36544, G175K/Y115F); assay: Agonist potency at chimeric channel; type: cell-based; settings: Table 5
T28 construct: expressed in transfected cells

α7^L131M-GlyR = target: T29, α7^L131M-GlyR (Homo sapiens, UniProt P36544, L131M); type: cell-based; settings: α7GlyR L131M; read-out: Agonist potency
T29 construct: expressed in transfected cells

α7GlyR Q79G G175K = target: T30, α7GlyR Q79G G175K (Homo sapiens, UniProt P36544, G175K/Q79G); assay: Agonist potency at chimeric channel; type: cell-based; settings: Table 5
T30 construct: expressed in transfected cells

## c1cnc2cc3c(cc2n1)[C@@H]1CNC[C@H]3C1 [Varenicline]
α7GlyR Y115F G175M
  pEC50: 4.85
α7GlyR Y115F G175F
  pEC50: 4.87
α7-5HT3 [1]
  pEC50: 6.04
α7GlyR Y115F G175R
  pEC50: 5.12
α7GlyR W77F G175K Y210F
  pEC50: < 5.05
α7GlyR Y115F G175S
  pEC50: 5.01
[2]
  pEC50: < 4.52
[3]
  pEC50: < 4.52
[4]
  pEC50: 5.31
α7^L131Q-GlyR
  pEC50: 6.14
α7GlyR W77F Q79G G175K
  pEC50: 5.48
α7GlyR Y115F G175K L141F
  pEC50: < 5.09
α7GlyR G175K Y210F
  pEC50: 5.37
α7^L131A-GlyR
  pEC50: 7.09
α7^Q79S-GlyR
  pEC50: 6.55
α7-5HT3 [5]
  pEC50: 6.04
α7GlyR Y115F L131M
  pEC50: < 4.00
α7^Q79G-5HT3
  pEC50: 6.04
α7GlyR Q79G G175K Y115F
  pEC50: < 5.00
α7^L131F-GlyR
  pEC50: 5.59
α7GlyR G175K
  pEC50: 7.25
α7GlyR W77F G175K
  pEC50: 6.24
α7GlyR Y115F G175V
  pEC50: 5.34
α7-GlyR^A298G
  pEC50: 6.60
α7GlyR Y115F G175A
  pEC50: 5.23
α7^L131N-GlyR
  pEC50: 7.16
[6]
  pEC50: < 5.00
α7^Q79A-GlyR
  pEC50: 6.32
α7GlyR Y115F G175K
  pEC50: 5.30
α7^L131M-GlyR
  pEC50: 6.28
α7GlyR Q79G G175K
  pEC50: 6.38
